# Literature values, collected in paper PMC9118553, “In Vivo Bioconcentration of 10 Anionic Surfactants in Rainbow Trout Explained by In Vitro Data on Partitioning and S9 Clearance” (Environmental Science & Technology, 2022).
# Key:
# [1] = parameters: method as in REACH dossier; details: method as noted in the cell (shake flask, solubility ratio, HPLC, BCFBAF, pH); ref REACH dossier; cited from earlier work
# [2] = ref REACH dossier; cited from earlier work
substance,measurement,setting,value
4-((2-hydroxyethyl)amino)-3-pentaproenyl-4-oxobutanoate - sodium/triethanolamine,LogKow,[1],1.1
same,Degradation information ~28d-sludge test (% degradable),[2],53%
